In the NIST ThermoML archive (doi:10.1021/je8005369):

Conditions: Liquid; for mass density: Vibrating Wire Viscometer; for viscosity: Vibrating wire viscometry

CCCCOCCCC [dibutyl ether]
Conditions	mass density [kg/m3]	viscosity [mPa·s]
243.15 K, 100 kPa	809.772	1.734
243.15 K, 4800 kPa	812.717	1.836
243.15 K, 10290 kPa	816.304	1.954
243.15 K, 15700 kPa	819.465	2.083
243.15 K, 21120 kPa	822.606	2.221
253.15 K, 100 kPa	801.37	1.379
253.15 K, 4550 kPa	804.548	1.448
253.15 K, 9650 kPa	807.789	1.54
253.15 K, 14760 kPa	811.186	1.624
253.15 K, 19760 kPa	814.14	1.716
263.15 K, 100 kPa	793.117	1.126
263.15 K, 4650 kPa	796.489	1.183
263.15 K, 10000 kPa	800.232	1.256
263.15 K, 15290 kPa	803.649	1.332
263.15 K, 20520 kPa	807.105	1.404
273.15 K, 100 kPa	784.503	0.942
273.15 K, 4810 kPa	788.298	0.9913
273.15 K, 10200 kPa	792.324	1.049
273.15 K, 15570 kPa	796.106	1.109
273.15 K, 20870 kPa	799.664	1.171
283.15 K, 100 kPa	776.314	0.8032
283.15 K, 4780 kPa	780.133	0.8437
283.15 K, 10150 kPa	784.429	0.8898
283.15 K, 15580 kPa	788.422	0.9423
283.15 K, 20830 kPa	792.172	0.9923
293.15 K, 100 kPa	767.938	0.6906
293.15 K, 4750 kPa	772.058	0.7263
293.15 K, 10180 kPa	776.552	0.7684
293.15 K, 15470 kPa	780.608	0.812
293.15 K, 20760 kPa	784.626	0.8546
303.15 K, 100 kPa	759.934	0.608
303.15 K, 4500 kPa	763.973	0.6386
303.15 K, 9570 kPa	768.455	0.6735
303.15 K, 14530 kPa	772.612	0.7081
303.15 K, 19670 kPa	776.718	0.7436
313.15 K, 100 kPa	751.438	0.5388
313.15 K, 4510 kPa	755.825	0.5648
313.15 K, 9600 kPa	760.621	0.5966
313.15 K, 14650 kPa	765.058	0.6282
313.15 K, 19640 kPa	769.315	0.6571
323.15 K, 100 kPa	743.119	0.4805
323.15 K, 4510 kPa	747.707	0.5061
323.15 K, 9570 kPa	752.915	0.5306
323.15 K, 14630 kPa	757.591	0.5608
323.15 K, 19600 kPa	761.898	0.59
333.15 K, 100 kPa	734.484	0.4326
333.15 K, 4490 kPa	739.443	0.4553
333.15 K, 9580 kPa	744.884	0.4806
333.15 K, 14630 kPa	749.942	0.5061
333.15 K, 19620 kPa	754.541	0.5317
343.15 K, 100 kPa	725.879	0.3914
343.15 K, 4640 kPa	731.433	0.412
343.15 K, 9640 kPa	737.137	0.4352
343.15 K, 14730 kPa	742.477	0.4581
343.15 K, 19730 kPa	747.369	0.4822
353.15 K, 100 kPa	717.116	0.3538
353.15 K, 4510 kPa	722.869	0.3738
353.15 K, 9570 kPa	729.12	0.3945
353.15 K, 14640 kPa	734.754	0.4166
353.15 K, 19630 kPa	740.012	0.4373
363.15 K, 100 kPa	708.168	0.3236
363.15 K, 4510 kPa	714.412	0.3413
363.15 K, 9720 kPa	721.185	0.3622
363.15 K, 15300 kPa	727.703	0.3835
363.15 K, 21100 kPa	733.972	0.407
373.15 K, 100 kPa	699.123	0.2954
373.15 K, 4900 kPa	706.359	0.3145
373.15 K, 10170 kPa	713.653	0.3337
373.15 K, 15630 kPa	720.422	0.3536
373.15 K, 20590 kPa	726.094	0.3733
